# Measurements from ChEMBL document CHEMBL1255571, “Discovery of pyrrolopyrimidine inhibitors of Akt” (Bioorg Med Chem Lett, 2010).
# How the values were obtained:
# [1] = Plasma protein binding in mouse; type: ADME, cell-free; details: read-out: PPB (converted)
# Homo sapiens = species: Homo sapiens; assay: Plasma protein binding in human; details: read-out: PPB (converted)
smiles,measurement,setting,value
Cc1c[nH]c2ncnc(N3CCN(C(=O)[C@H](N)Cc4ccc(F)cc4)CC3)c12,fraction unbound,[1],0.34
same,fraction unbound,Homo sapiens,0.35
